Assay results taken from paper PMC8606745 (Frontiers in Microbiology, 2021).

Test system: tobacco leaves
Assay: Effect of peptide infiltration on tobacco leaves
Conditions: 100 μl infiltrated into mesophyll of tobacco leaves, 48 h, three inoculations, ± confidence interval (α=0.05)

Structure (SMILES) | Leaf infiltration effect (lesion diameter) (50 µM) [mm] | Leaf infiltration effect (lesion diameter) (100 µM) [mm] | Leaf infiltration effect (lesion diameter) (150 µM) [mm]
CC[C@H](C)[C@H](NC(=O)[C@H](C)NC(=O)[C@H](CCCNC(=N)N)NC(=O)[C@@H]1CCCN1C(=O)[C@@H](NC(=O)[C@H](CC(C)C)NC(=O)[C@H](CO)NC(=O)[C@H](Cc1ccccc1)NC(=O)[C@H](CC(C)C)NC(=O)[C@@H](N)Cc1ccccc1)[C@@H](C)CC)C(=O)NCC(=O)NCC(=O)N[C@@H](CC(C)C)C(=O)N[C@H](C(=O)N[C@@H](CO)C(=O)N[C@@H](C)C(=O)N[C@@H](Cc1ccccc1)C(=O)N[C@@H](CCCCN)C(N)=O)[C@@H](C)CC [AamAP-R] | 5.33 ± 0.65 | 10.67 ± 2.36 | 13.67 ± 3.64
CC[C@H](C)[C@H](NC(=O)[C@H](C)NC(=O)[C@H](CCCCN)NC(=O)[C@@H]1CCCN1C(=O)[C@@H](NC(=O)[C@H](CC(C)C)NC(=O)[C@H](CO)NC(=O)[C@H](Cc1ccccc1)NC(=O)[C@H](CC(C)C)NC(=O)[C@@H](N)Cc1ccccc1)[C@@H](C)CC)C(=O)NCC(=O)NCC(=O)N[C@@H](CC(C)C)C(=O)N[C@H](C(=O)N[C@@H](CO)C(=O)N[C@@H](C)C(=O)N[C@@H](Cc1ccccc1)C(=O)N[C@@H](CCCCN)C(N)=O)[C@@H](C)CC [AamAP-S1] | 5.33 ± 0.65 | 11.00 ± 2.99 | 17.67 ± 0.65
CC[C@H](C)[C@H](N)C(=O)N[C@@H](CC(C)C)C(=O)N1CCC[C@H]1C(=O)N[C@H](Cc1ccccc1)C(=O)N[C@@H](CCCCN)C(=O)N[C@H](Cc1ccccc1)C(=O)N1CCC[C@H]1C(=O)N[C@H](Cc1ccccc1)C(=O)N[C@H](Cc1ccccc1)C(=O)N1CCC[C@H]1C(=O)N[C@H](Cc1ccccc1)C(=O)N[C@@H](CCCNC(=N)N)C(=O)N[C@@H](CCCNC(=N)N)C(N)=O [BP525] | 4 ± 1.96 | 5.33 ± 0.65 | 8.67 ± 0.65
CC[C@H](C)[C@H](NC(=O)CN)C(=O)NCC(=O)N[C@@H](CCCCN)C(=O)N[C@@H](Cc1ccccc1)C(=O)N[C@@H](CC(C)C)C(=O)N[C@@H](Cc1c[nH]cn1)C(=O)N[C@@H](CO)C(=O)N[C@@H](C)C(=O)N[C@@H](CCCCN)C(N)=O [Magainin 2(1-10)] | 0 ± 0 | 0.00 ± 0.00 | 0.00 ± 0.00
CC[C@H](C)[C@H](NC(=O)[C@H](CCCNC(=N)N)NC(=O)[C@H](Cc1c[nH]c2ccccc12)NC(=O)[C@H](CCC(N)=O)NC(=O)[C@@H](N)C(C)C)C(=O)N[C@@H](CCCNC(=N)N)C(=O)N[C@H](C(=O)N[C@@H](CCCNC(=N)N)C(=O)N[C@H](C(=O)N[C@H](C(=O)N[C@@H](CCCCN)C(=O)N[C@@H](CCCCN)C(N)=O)[C@@H](C)CC)C(C)C)C(C)C [Peptide 1026] | 4 ± 1.73 | 6.33 ± 1.31 | 7.67 ± 0.65
CC[C@H](C)[C@H](NC(=O)[C@H](CCCNC(=N)N)NC(=O)[C@H](Cc1ccccc1)NC(=O)[C@H](CCC(N)=O)NC(=O)[C@@H](N)CCCCN)C(=O)N[C@@H](CCCNC(=N)N)C(=O)N[C@H](C(=O)N[C@@H](CCCNC(=N)N)C(=O)N[C@H](C(N)=O)C(C)C)C(C)C [Peptide 1029] | 0.33 ± 0.65 | 5.00 ± 0.00 | 8.00 ± 1.13
CC[C@H](C)[C@H](NC(=O)[C@H](CCCNC(=N)N)NC(=O)[C@H](Cc1ccccc1)NC(=O)[C@H](CCC(N)=O)NC(=O)[C@@H](N)C(C)C)C(=O)N[C@@H](CCCNC(=N)N)C(=O)N[C@H](C(=O)N[C@@H](CCCNC(=N)N)C(=O)N[C@H](C(=O)N[C@H](C(=O)N[C@H](C(=O)N[C@@H](CCCNC(=N)N)C(=O)N[C@@H](CCCCN)C(N)=O)[C@@H](C)CC)C(C)C)[C@@H](C)CC)C(C)C [Peptide 1036] | 6 ± 1.13 | 7.00 ± 1.13 | 11.67 ± 0.65
CC[C@H](C)[C@H](NC(=O)[C@H](CCCNC(=N)N)NC(=O)[C@H](Cc1ccccc1)NC(=O)[C@H](CCCNC(=N)N)NC(=O)[C@@H](N)CCCCN)C(=O)N[C@@H](CCCNC(=N)N)C(=O)N[C@H](C(=O)N[C@@H](CCCNC(=N)N)C(=O)N[C@H](C(N)=O)C(C)C)C(C)C [Peptide 1037] | 4.33 ± 1.31 | 6.33 ± 1.73 | 9.67 ± 1.31
CC[C@@H](C)[C@@H](NC(=O)[C@H](N)CCCNC(=N)N)C(=O)N[C@@H](C(=O)N[C@H](Cc1c[nH]c2ccccc12)C(=O)N[C@@H](C(=O)N[C@H](CCCNC(=N)N)C(=O)N[C@@H](C(=O)N[C@H](CCCNC(=N)N)C(=O)N[C@H](CCCNC(=N)N)C(=O)N[C@H](Cc1c[nH]c2ccccc12)C(=O)N[C@H](Cc1ccccc1)C(=O)N[C@@H](C(N)=O)C(C)C)[C@H](C)CC)C(C)C)C(C)C [RIJK2] | 2.33 ± 0.65 | 5.67 ± 0.65 | 8.67 ± 1.31
CC[C@H](C)[C@H](NC(=O)[C@H](CCCNC(=N)N)NC(=O)[C@@H](NC(=O)[C@H](Cc1c[nH]c2ccccc12)NC(=O)[C@@H](NC(=O)[C@@H](NC(=O)[C@@H](N)CCCNC(=N)N)[C@@H](C)CC)C(C)C)C(C)C)C(=O)N[C@@H](CCCNC(=N)N)C(=O)N[C@@H](CCCNC(=N)N)C(=O)N[C@@H](Cc1c[nH]c2ccccc12)C(=O)N[C@@H](Cc1ccccc1)C(=O)N[C@H](C(N)=O)C(C)C [RJK2] | 5.67 ± 0.65 |  | 
CC[C@H](C)[C@H](NC(=O)[C@H](Cc1c[nH]c2ccccc12)NC(=O)[C@H](CCCCN)NC(=O)[C@H](CCCCN)NC(=O)[C@@H](NC(=O)[C@H](CCCNC(=N)N)NC(=O)[C@H](CCCNC(=N)N)NC(=O)[C@@H](NC(=O)[C@@H](N)Cc1c[nH]c2ccccc12)[C@@H](C)CC)[C@@H](C)CC)C(=O)N[C@@H](CCCNC(=N)N)C(=O)N[C@@H](CCCNC(=N)N)C(=O)N[C@H](C(=O)N[C@@H](Cc1c[nH]cn1)C(=O)N[C@@H](CCCCN)C(N)=O)C(C)C [RR2-NH2] | 3.33 ± 0.65 | 4.67 ± 0.65 | 9.33 ± 1.73
CC[C@H](C)[C@H](NC(=O)[C@H](CCCNC(=N)N)NC(=O)[C@H](CCCNC(=N)N)NC(=O)[C@H](CC(C)C)NC(=O)[C@@H](N)Cc1c[nH]c2ccccc12)C(=O)N[C@@H](CCCCN)C(=O)N[C@@H](C)C(=O)N[C@@H](Cc1c[nH]c2ccccc12)C(=O)N[C@@H](CC(C)C)C(=O)N[C@@H](CCCNC(=N)N)C(=O)N[C@@H](CCCNC(=N)N)C(=O)N[C@@H](CCCCN)C(=O)N[C@@H](CCCNC(=N)N)C(=O)N[C@@H](CCCCN)C(N)=O [RR3-NH2] | 3 ± 1.13 | 5.33 ± 1.73 | 8.67 ± 1.31
CC[C@H](C)[C@H](NC(=O)[C@H](CCCNC(=N)N)NC(=O)[C@H](CCCNC(=N)N)NC(=O)[C@H](CC(C)C)NC(=O)[C@H](Cc1c[nH]c2ccccc12)NC(=O)[C@H](C)NC(=O)[C@H](CCCCN)NC(=O)[C@@H](NC(=O)[C@H](CCCNC(=N)N)NC(=O)[C@H](CCCNC(=N)N)NC(=O)[C@H](CC(C)C)NC(=O)[C@@H](N)Cc1c[nH]c2ccccc12)[C@@H](C)CC)C(=O)N[C@@H](CCCCN)C(=O)N[C@@H](C)C(N)=O [RR4-NH2] | 4.33 ± 0.65 | 6.67 ± 0.65 | 9.00 ± 1.13
